Results published in patent US20230091225A1, “Bifunctional chimeric heterocyclic compounds for targeted degradation of androgen receptors and use thereof” (HINOVA PHARMACEUTICALS INC., priority 2019, published 2023).
This is a selection: effects in other tests are not listed, and their absence says nothing.

Chains of the proteins cited; added tags and fusions are not shown.
UniProt P10275, whole entry: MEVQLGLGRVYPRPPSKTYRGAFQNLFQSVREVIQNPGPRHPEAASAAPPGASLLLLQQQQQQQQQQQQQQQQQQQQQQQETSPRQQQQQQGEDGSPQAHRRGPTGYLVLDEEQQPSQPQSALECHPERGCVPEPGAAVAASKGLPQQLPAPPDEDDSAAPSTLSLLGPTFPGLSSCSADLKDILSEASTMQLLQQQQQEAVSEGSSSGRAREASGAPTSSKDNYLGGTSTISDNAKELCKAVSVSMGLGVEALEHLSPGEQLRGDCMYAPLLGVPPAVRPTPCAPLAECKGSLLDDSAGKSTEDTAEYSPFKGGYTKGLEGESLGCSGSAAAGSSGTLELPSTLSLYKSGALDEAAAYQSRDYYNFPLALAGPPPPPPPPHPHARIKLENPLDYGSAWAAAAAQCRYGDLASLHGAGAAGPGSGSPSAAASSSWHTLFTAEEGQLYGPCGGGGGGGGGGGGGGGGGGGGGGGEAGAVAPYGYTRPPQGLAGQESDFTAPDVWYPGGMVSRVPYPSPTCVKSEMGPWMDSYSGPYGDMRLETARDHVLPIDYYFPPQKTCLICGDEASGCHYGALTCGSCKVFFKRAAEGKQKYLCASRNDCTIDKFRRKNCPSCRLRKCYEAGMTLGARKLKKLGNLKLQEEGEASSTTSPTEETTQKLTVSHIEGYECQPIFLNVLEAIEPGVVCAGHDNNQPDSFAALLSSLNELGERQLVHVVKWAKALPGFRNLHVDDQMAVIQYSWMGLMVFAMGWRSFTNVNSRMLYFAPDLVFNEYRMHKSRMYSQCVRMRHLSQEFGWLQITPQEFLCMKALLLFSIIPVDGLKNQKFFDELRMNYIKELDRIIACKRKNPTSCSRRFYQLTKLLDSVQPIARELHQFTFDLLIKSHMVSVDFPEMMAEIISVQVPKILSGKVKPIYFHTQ

Biological target: androgen receptor (AR) (Homo sapiens, UniProt P10275)
Experiment: Degradation of androgen receptor (AR) protein in VCaP cells by ELISA
Assay type: cell-based
Settings: 16 h, Table 3-1

Substance	DC50 [nM]	Dmax (%)
N-((1r,4r)-4-(3-chloro-4-cyanophenoxy)cyclohexyl)-5-(7-(1-(2-(2,6-dioxopiperidin-3-yl)-1,3-dioxoisoindolin-5-yl)piperidine-4-yl)-2,7-diazaspiro[3.5]nonan-2-yl)pyrazine-2-carboxamide	< 10	++++ (>80%)
N-((1r,4r)-4-(3-chloro-4-cyanophenoxy)cyclohexyl)-6-(7-(1-(2-(2,6-dioxopiperidin-3-yl)-1,3-dioxoisoindolin-5-yl)piperidine-4-yl)-2,7-diazaspiro[3.5]nonan-2-yl)pyridazine-3-formamide	< 10	++++ (>80%)
